Patent publication US20230303496A1, “SELECTIVE ANDROGEN RECEPTOR COVALENT ANTAGONISTS (SARCAs) AND METHODS OF USE THEREOF” (published 2023)
Values joined by “and” are separate entries in the source; they are usually repeats but may differ in a detail not shown here. Equal entries are not always repeated. Where two headings read alike, the source gives them in different places.

Amino acid sequences for entries named in this document (tags omitted). A change or cut given only in a name is not applied to a line headed by its entry. Residues count along the entry.
UniProt P10275, whole entry T878A, looked up: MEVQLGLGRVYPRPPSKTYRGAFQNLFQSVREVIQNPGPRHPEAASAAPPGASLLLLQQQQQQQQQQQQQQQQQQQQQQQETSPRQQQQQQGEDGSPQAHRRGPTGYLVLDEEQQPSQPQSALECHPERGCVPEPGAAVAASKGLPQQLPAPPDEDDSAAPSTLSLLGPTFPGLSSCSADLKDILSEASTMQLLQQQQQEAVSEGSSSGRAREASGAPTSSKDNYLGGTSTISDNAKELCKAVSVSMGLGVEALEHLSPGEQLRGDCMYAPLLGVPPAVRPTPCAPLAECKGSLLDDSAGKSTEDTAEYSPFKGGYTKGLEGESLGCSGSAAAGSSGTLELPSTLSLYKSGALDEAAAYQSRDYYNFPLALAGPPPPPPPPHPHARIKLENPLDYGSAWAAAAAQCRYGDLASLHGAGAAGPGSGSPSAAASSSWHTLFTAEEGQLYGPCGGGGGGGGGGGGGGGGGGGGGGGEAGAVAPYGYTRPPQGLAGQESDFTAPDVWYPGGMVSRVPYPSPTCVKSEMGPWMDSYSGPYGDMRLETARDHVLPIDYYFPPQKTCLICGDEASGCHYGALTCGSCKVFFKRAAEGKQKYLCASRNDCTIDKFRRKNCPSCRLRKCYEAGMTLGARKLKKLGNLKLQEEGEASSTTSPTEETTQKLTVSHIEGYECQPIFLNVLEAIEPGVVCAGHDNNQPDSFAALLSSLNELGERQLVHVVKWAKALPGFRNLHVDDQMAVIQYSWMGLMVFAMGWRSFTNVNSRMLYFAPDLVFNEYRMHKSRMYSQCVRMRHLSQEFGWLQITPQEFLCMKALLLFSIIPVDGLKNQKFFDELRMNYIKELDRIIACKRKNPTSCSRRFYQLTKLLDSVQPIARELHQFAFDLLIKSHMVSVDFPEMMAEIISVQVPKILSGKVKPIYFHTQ
UniProt P10275, 633-919 limits assumed: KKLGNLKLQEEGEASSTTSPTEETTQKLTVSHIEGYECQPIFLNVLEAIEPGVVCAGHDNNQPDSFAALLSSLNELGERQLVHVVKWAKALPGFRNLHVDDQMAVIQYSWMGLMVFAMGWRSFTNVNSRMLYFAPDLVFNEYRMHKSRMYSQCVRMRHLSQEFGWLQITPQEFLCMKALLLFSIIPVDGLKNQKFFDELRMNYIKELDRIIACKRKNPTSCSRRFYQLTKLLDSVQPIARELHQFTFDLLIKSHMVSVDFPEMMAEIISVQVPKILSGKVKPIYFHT
UniProt P10275, 141-486 limits assumed: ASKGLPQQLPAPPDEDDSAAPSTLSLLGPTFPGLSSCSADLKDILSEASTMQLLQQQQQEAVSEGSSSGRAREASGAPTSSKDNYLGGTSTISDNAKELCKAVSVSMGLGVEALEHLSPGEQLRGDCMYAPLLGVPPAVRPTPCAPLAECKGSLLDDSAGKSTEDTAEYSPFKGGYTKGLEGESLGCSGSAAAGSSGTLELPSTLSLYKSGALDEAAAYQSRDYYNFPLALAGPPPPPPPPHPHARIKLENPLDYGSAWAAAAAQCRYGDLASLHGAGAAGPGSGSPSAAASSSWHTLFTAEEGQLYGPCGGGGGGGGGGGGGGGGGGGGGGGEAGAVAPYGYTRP
UniProt P06536: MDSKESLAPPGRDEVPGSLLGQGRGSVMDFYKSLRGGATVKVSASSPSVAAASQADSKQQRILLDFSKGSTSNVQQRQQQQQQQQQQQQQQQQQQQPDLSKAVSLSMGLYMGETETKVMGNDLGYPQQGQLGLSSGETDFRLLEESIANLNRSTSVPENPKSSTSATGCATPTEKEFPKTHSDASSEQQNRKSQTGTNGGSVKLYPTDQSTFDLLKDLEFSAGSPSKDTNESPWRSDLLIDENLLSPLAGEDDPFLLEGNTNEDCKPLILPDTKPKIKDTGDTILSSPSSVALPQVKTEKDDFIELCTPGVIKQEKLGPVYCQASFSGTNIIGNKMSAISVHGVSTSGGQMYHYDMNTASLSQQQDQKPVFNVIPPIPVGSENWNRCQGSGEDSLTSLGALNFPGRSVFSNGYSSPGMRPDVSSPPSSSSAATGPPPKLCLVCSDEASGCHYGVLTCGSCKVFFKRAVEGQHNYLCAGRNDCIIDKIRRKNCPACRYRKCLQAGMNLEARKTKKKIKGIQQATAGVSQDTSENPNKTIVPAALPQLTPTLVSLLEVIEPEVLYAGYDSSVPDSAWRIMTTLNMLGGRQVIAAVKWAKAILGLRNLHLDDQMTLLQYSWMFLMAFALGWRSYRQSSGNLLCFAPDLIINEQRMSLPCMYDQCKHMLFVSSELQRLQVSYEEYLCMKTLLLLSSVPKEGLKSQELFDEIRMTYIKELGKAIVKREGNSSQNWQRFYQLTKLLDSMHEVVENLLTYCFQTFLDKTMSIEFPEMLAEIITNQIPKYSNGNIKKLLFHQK
UniProt P06401: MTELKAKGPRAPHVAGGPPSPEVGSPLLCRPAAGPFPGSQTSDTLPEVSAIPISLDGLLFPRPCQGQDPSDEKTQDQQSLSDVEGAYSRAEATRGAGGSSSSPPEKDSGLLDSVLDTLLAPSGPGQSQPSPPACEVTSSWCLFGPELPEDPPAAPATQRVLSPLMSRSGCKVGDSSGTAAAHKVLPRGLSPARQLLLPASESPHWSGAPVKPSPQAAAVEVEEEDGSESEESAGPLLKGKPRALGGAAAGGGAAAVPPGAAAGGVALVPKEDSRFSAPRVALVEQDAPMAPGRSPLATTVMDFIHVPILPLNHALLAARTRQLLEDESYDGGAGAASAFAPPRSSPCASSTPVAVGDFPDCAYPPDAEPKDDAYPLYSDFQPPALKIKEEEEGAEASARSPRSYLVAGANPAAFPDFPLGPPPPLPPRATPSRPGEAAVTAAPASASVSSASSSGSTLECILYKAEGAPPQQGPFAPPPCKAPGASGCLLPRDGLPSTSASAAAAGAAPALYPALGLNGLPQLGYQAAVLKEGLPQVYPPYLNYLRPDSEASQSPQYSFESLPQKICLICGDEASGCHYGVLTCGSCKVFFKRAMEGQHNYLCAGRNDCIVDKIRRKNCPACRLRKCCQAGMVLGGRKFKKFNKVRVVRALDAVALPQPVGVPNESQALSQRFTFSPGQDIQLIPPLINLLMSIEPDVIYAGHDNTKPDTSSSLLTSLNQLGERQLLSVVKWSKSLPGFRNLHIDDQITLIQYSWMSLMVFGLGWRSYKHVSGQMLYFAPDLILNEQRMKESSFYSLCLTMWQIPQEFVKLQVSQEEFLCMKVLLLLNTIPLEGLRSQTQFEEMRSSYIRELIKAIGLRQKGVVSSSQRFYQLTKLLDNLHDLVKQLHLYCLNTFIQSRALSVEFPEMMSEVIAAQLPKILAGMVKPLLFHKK
UniProt P08515, whole entry, looked up: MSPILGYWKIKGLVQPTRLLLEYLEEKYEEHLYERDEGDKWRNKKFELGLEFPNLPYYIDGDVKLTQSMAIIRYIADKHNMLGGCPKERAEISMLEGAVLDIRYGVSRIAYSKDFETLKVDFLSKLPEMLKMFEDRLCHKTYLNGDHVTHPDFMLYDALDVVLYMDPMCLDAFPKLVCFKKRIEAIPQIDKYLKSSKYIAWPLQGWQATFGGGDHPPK

Tests used:
[1] = biological target: AR wildtype (wt) (Homo sapiens, UniProt P10275); test: Transactivation assay with wt AR (IC50)
[2] = biological target: AR splice variant (AR-V7) (Homo sapiens, UniProt P10275); test: AR-SV / AR-V7 degradation (Western blot); conditions: for SARD Activity S.V. (22RV1) % degradation at 10 uM: 22RV1, 10 uM
[3] = biological target: AR full length (AR FL) (Homo sapiens, UniProt P10275, T878A); test: AR full length degradation (Western blot); conditions: for AR degradation: Table 2
[4] = biological target: hAR-LBD (633-919) (Homo sapiens, UniProt P10275); test: Ligand binding assay (Ki) to AR-LBD; conditions: [3H]mibolerone, recombinant AR-LBD; for Ki: read-out: Binding Ki (nm) (DHT= 1nM)
[5] = biological target: GR wildtype (wt) (Rattus norvegicus, UniProt P06536); test: GR transactivation
[6] = biological target: PR wildtype (wt) (Homo sapiens, UniProt P06401); test: PR transactivation
[7] = system: LNCaP cells; test: LNCaP proliferation (SRB assay); conditions: FIG. 38, 0.1 nM R1881; at 1, 3 and 10 μM
[8] = system: PSA and FKBP5 in LNCaP cells; test: LNCaP gene expression assay; conditions: FIG. 39
[9] = biological target: glutathione S-transferase (GST) (Schistosoma japonicum, UniProt P08515); test: Mass spectrometry: cross-reactivity with GST; conditions: for cross-reaction with GST: 100 μM, for 1 as % of the AF-1 modifications
[10] = Metabolic stability in mouse liver microsomes; conditions: for DMPK(MLM) T1/2 (min) / DMPK(MLM) T1/2: Table 1; for stability to in vitro metabolism in MLM (in words): FIG. 15
[11] = Metabolic stability in rat liver microsomes
[12] = system: AR-target tissues prostate and seminal vesicles; test: In vivo AR antagonism (Hershberger assay) in intact rats; conditions: for effect on prostate and seminal vesicles weight normalized to body weight (in words): FIGS. 53A, 53B, 20 mg/kg for 13 days
[13] = biological target: AR AF-1 (A.A. 141-486) (Homo sapiens, UniProt P10275); test: Mass spectrometry of tryptic digests: covalent binding to AR AF-1
[14] = Rat pharmacokinetics, serum by LC-MS/MS; conditions: 20 mg/kg oral
[15] = system: MDA-MB-453 TNBC xenograft; test: MDA-MB-453 TNBC xenograft in NSG mice; conditions: 60 mpk, 28 days
[16] = system: LNCaP-AR xenograft; test: LNCaP-AR xenograft in intact NSG mice; conditions: 60 mpk, 28 days
[17] = system: LNCaP cells over-expressing AR; test: AR-target gene expression in LNCaP cells over-expressing AR; conditions: FIG. 47
[18] = system: NFkB; test: NFkB transactivation (p65 and NFkB-LUC)
[19] = biological target: AR (Homo sapiens, UniProt P10275); test: Schild's plot, AR transactivation with R1881 dose-response; conditions: Table 2, second part of cell
[20] = read-out: AR antagonism (IC50 nM), Table 2
[21] = read-out: Wt. IC50, Table 1, with 0.1 nM R1881
[22] = 1 μM (first of two values in cell)
[23] = 10 μM (second of two values in cell)
[24] = read-out: GR antagonism (IC50 nM), Table 2
[25] = read-out: PR antagonism (IC50 nM), Table 2
[26] = read-out: wtAR transactivation IC50, FIG. 41
[27] = single value in cell, 1 or 10 μM not stated
[28] = read-out: wtAR transactivation IC50, FIG. 43

For `C/C(=C\C(=O)Nc1ccc(C#N)c(C(F)(F)F)c1)n1cc(F)cn1`, the “inhibition of wtAR transactivation (in words)” value [1] was “comparable”, the IC50 [1, 20] was 364 nM and the IC50 [1, 21] was 364 nM. The IC50 ([1]; read-out: wtAR transactivation IC50, FIG. 6, COS7 cells, 0.1 nM R1881) was 364 nM, the “SARD Activity S.V. (22RV1) % degradation at 10 uM” value [2] was 45% and the “SARD Activity Full Length % degradation at 1,10 μm” value [3, 22] was 8%. The “SARD Activity Full Length % degradation at 1,10 μm” value [3, 23] was 60%, the Ki [4] was 319 nM and the IC50 [5, 24] was 193 nM. For the same molecule, the IC50 [6, 25] was 465 nM.

In the case of `C/C(=C\c1ccc(F)cc1)C(=O)Nc1ccc(C#N)c(C(F)(F)F)c1`, the “inhibition of wtAR transactivation (in words)” value [1] is reported as “both inhibited AR transactivation”, the IC50 [1, 21] is reported as 732 nM and the IC50 [1, 26] is reported as 732 nM.

With `C/C(=C\C(=O)Nc1ccc(C#N)c(C(F)(F)F)c1)c1ccc(F)cc1` the “inhibition of wtAR transactivation (in words)” value [1] was “both inhibited AR transactivation”, the IC50 [1, 21] was 18.2 nM and the IC50 [1, 26] was 18 nM.

With `N#Cc1ccc(NC(=O)/C=C/n2cc(F)cn2)cc1C(F)(F)F` the IC50 [1, 20] was 1140 nM and the IC50 [1, 21] was 1140 nM.

For `N#Cc1cnn(CC(Cn2cc(C#N)cn2)C(=O)Nc2ccc(C#N)c(C(F)(F)F)c2)c1`, the IC50 [1, 20] was 356 nM, the IC50 [1, 21] was 356 nM and the “SARD Activity S.V. (22RV1) % degradation at 10 uM” value [2] was 0%. The AR degradation [3] was “Yes (see Figure 17)”, the “AR (full length) degradation (in words)” value ([3]; Western blot, LNCaP, LNCaP-V7 or 22RV1 cells) was “less robust” and the “SARD Activity Full Length % degradation at 1,10 μm” value [3, 27] was 77%.

For `CNC(=O)c1ccc(N2C(=S)N(c3ccc(C#N)c(C(F)(F)F)c3)C(=O)C2(C)C)cc1F`, the antiproliferative efficacy reached [7] was “approximately 40%” and the “AR dependent gene expression of PSA and FKBP5 (in words)” value (“AR dependent gene expression” below) [8] was “dose-dependently decreased”.

With `C/C(=C/C(=O)Nc1ccc(C#N)c(C(F)(F)F)c1)n1cc(F)cn1` the “SARD Activity S.V. (22RV1) % degradation at 10 uM” value [2] was 26% and the “SARD Activity Full Length % degradation at 1,10 μm” value [3, 27] was 92%.

For `C=C(Cn1cc(F)cn1)C(=O)Nc1ccc(C#N)c(C(F)(F)F)c1`, the “cross-reaction with GST” value [9] was “about 10%”, the “half-life in MLM” value ([10]; FIG. 21, Phase I and II conditions) was 41 min and the “DMPK(MLM) T1/2 (min)” value [10] was “Infinity”. The “time stable in RLM” value ([11]; FIG. 20) was greater than 60 min, the “estimated half-life in RLM” value ([11]; FIG. 20, Phase I stability) was “about 84 min” and the “effect on prostate and seminal vesicles weight normalized to body weight (in words)” value [12] was “inhibited AR-target tissues prostate and seminal vesicles”. The IC50 ([5]; read-out: GR IC50, FIG. 23) was 776 nM, the IC50 [5, 24] was 1040 nM and the IC50 [6, 25] was 745 nM. The “AR dependent gene expression” value [8] was “dose-dependently decreased”.

For `C[C@](O)(CC1N=CC(C#N)=N1)C(=O)Nc1cnc(C#N)c(C(F)(F)F)c1` (some centres unmarked), the “competition for binding to AF-1 (in words)” value ([13]; pre-incubation with 100 μM competitor, then 30 μM 6) was “competed with 1 and 6 for binding to AF-1”.

In the case of `C=C(CO[C@@](C)(Cn1cc(C#N)cn1)C(=O)Nc1cnc(C#N)c(C(F)(F)F)c1)C(=O)OC`, the “half-life in rats (in words)” value [14] is reported as “long half-life in rats”, the “MDA-MB-453 TNBC xenograft growth (in words)” value [15] is reported as “inhibited growth” and the “cross-reaction with GST” value [9] is reported as 2-5%. The “stability to in vitro metabolism in MLM (in words)” value [10] was “stable to in vitro metabolism by mouse liver microsomes”, the “DMPK(MLM) T1/2 (min)” value [10] was “Infinity” and the “LNCaP-AR xenograft growth (in words)” value [16] was “inhibited growth”. The “AR-target gene expression (in words)” value [17] was “inhibited AR-target gene expression in prostate cancer cells”, the “prostate weight reduction relative to intact control” value ([12]; 20 mg/kg/day oral, 14 days) was 45% and 40% and the “seminal vesicles weight reduction relative to intact control” value ([12]; 20 mg/kg/day oral, 14 days) was 60%. The “effect on prostate and seminal vesicles weight normalized to body weight (in words)” value [12] was “inhibited AR-target tissues prostate and seminal vesicles”, the “GR activity, efficacy” value ([5]; FIG. 9) was “about 20%” and the IC50 [5, 24] was 6220 nM. The “AR dependent gene expression” value [8] was “dose-dependently decreased” and the “inhibition of NFkB transactivation (in words)” value [18] was “not NFkB”.

Work on `C=C(Cn1cc(C#N)cn1)C(=O)Nc1ccc(C#N)c(C(F)(F)F)c1` yielded an IC50 [1, 20] of 1420 nM, an IC50 [1, 21] of 1420 nM and an IC50 ([1]; read-out: wtAR transactivation IC50, FIG. 1, COS cells) of 461 nM. For the same molecule, the IC50 [1, 28] was 851 nM, the “alkylation / cross-reaction with GST (in words)” value [9] was “alkylated cysteine residues in GST” and the “stability to in vitro metabolism in MLM (in words)” value [10] was “stable to in vitro metabolism by mouse liver microsomes”. For the same molecule, the “DMPK(MLM) T1/2” value [10] was 18.19 min, the “SARD Activity S.V. (22RV1) % degradation at 10 uM” value [2] was 51% and the AR-V7 degradation ([2]; Table 2) was “Yes (see Figures 17 and 19)”. The AR degradation [3] was “Yes (see Figures 17 and 19)”, the “SARD Activity Full Length % degradation at 1,10 μm” value [3, 27] was 0% and the “MassSpec Binding” value ([13]; Table 2, first part of cell) was “Yes/Yes (see Figures 25A/2)”. The Ki [4] was 1230 nM, the IC50 ([5]; read-out: GR IC50, FIG. 23) was 630 nM and the IC50 ([5]; read-out: GR IC50, FIG. 26) was 1430 nM. The IC50 ([6]; read-out: PR IC50, FIG. 26) was 125 nM, the IC50 [6, 25] was 125 nM and the “Schild's plot” value [19] was “Yes/Yes (see Figures 25A/2)”.

In the case of `N#Cc1ccc(NC(=O)C(Cn2cc(F)cn2)Cn2cc(F)cn2)cc1C(F)(F)F`, the “DMPK(MLM) T1/2” value [10] is reported as 26.98 min, the “GR inhibition (in words)” value [5] is reported as “did not demonstrate significant inhibition of GR” and the IC50 [5, 24] is reported as greater than 1000 nM.

Molecule `C=C(Cn1ccc2cc(F)ccc21)C(=O)Nc1ccc(C#N)c(C(F)(F)F)c1` has an IC50 [1, 20] of 4950 nM, an IC50 [1, 21] of 4950 nM and an IC50 [1, 28] of 6530 nM. The IC50 [5, 24] was 5760 nM and the “Schild's plot” value [19] was “N.D./Yes (N.D.)/(see Figures 8, 11)”.

For `N#Cc1ccc(NCn2ccc3cc(F)ccc32)cc1C(F)(F)F`, the IC50 [1, 21] was 726 nM, the “SARD Activity Full Length % degradation at 1,10 μm” value [3, 22] was 16% and the “SARD Activity Full Length % degradation at 1,10 μm” value [3, 23] was 80%. For the same molecule, the “Binding Ki (nm) (DHT= 1nM)” value [4] was “No binding”.
